From publication PMC5640878, “The GlyR Extracellular β8–β9 Loop – A Functional Determinant of Agonist Potency” (Frontiers in Molecular Neuroscience, 2017) come the findings set out here.

Sequences of proteins named here, by UniProt entry; tags and fusion partners are left off. A change or cut given only in a name is not applied to a line headed by its entry. Residues count along the entry.
UniProt P48167, 23-497: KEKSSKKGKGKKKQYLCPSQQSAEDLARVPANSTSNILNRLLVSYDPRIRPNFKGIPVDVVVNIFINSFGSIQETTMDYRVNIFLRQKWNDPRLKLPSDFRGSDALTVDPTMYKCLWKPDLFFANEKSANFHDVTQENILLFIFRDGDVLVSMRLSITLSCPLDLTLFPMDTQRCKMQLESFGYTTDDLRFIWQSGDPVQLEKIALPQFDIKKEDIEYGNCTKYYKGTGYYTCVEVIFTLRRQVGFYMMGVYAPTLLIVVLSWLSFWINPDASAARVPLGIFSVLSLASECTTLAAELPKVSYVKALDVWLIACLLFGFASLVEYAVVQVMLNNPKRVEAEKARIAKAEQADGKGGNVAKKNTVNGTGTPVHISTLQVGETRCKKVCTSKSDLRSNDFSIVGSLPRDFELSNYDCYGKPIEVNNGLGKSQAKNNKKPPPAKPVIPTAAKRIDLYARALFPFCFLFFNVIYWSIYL
UniProt Q64018, 29-457 Q205E: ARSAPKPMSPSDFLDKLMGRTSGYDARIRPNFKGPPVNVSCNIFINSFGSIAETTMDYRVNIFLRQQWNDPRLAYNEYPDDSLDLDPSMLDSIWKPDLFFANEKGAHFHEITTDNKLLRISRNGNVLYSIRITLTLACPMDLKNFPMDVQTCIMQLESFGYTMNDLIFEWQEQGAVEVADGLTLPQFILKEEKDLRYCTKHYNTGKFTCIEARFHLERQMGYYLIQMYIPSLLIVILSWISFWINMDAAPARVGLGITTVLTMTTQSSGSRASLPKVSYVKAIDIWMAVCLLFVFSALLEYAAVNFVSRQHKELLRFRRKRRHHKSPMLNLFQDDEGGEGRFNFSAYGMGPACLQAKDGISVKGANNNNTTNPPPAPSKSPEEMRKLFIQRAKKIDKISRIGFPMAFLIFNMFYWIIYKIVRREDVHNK

This test concerns the target GlyRα1^Q177Eβ (UniProt P48167+Q64018, Q205E). Kind of test: whole-cell patch clamp recordings of transfected HEK293 cells. The settings on record: read-out: EC50 glycine; HEK293, α1:β 1:2, whole-cell currents, 1–3000 μM glycine. A general note: The patch-clamp technique gives a direct electrical read-out from membranes.

As usually defined, the EC50 is the concentration giving half of the maximal effect. Consider `NCC(=O)O` [glycine], for which the EC50 came out at 109 ± 7 µM.
